From US20120165309A1, “HETERO RING DERIVATIVE” (Astellas Pharma Inc., priority 2009, published 2012)

Chains of the proteins cited; added tags and fusions are not shown. Lines headed by an entry give the natural chain unless they say otherwise; changes in a name come on top.
UniProt O00329: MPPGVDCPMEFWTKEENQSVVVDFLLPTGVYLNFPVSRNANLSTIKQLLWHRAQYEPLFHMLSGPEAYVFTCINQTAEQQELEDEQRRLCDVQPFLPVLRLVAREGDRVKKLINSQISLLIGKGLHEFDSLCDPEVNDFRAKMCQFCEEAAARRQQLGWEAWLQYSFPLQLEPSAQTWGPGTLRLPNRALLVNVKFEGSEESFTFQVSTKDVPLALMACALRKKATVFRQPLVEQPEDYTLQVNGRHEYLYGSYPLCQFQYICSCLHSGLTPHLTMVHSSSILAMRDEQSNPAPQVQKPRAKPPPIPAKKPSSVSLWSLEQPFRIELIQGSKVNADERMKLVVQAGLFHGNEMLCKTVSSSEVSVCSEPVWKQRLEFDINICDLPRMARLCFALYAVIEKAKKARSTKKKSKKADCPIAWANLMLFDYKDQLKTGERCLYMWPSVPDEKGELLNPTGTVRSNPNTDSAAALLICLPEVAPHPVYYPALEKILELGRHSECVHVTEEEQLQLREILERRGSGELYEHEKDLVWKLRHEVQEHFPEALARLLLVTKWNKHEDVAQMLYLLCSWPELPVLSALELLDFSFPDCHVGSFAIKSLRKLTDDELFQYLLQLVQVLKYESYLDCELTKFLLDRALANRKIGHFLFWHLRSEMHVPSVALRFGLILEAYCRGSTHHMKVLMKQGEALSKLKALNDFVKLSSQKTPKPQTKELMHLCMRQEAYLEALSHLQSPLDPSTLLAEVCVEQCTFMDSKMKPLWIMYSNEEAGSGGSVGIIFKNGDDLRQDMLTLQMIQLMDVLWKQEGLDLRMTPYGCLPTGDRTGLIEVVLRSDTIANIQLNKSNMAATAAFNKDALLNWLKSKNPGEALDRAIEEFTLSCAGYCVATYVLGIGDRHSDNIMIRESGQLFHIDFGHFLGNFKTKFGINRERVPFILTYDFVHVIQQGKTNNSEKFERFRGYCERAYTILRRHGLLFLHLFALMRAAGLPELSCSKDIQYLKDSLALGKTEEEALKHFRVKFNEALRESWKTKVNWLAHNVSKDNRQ

Molecular target: T1, human PI3Kδ enzyme (Homo sapiens, UniProt O00329)
T1 construct: purchased Millipore Corporation 14-604
Assay: PI3Kδ enzyme inhibitory activity (PI3-Kinase HTRF Assay kit)
Type: biochemical
Description: 1. PI3Kδ Enzyme Inhibitory Activity
For the experiment, a PI3-Kinase HTRF Assay kit (Millipore Corporation, Catalogue No. 33-016) and a human PI3Kδ enzyme (Millipore Corporation, Catalogue No. 14-604) were used. The measurement method was in accordance with the appended instructions. The overview thereof is as follows.
PI3Kδ (10 ng/well), phosphatidylinositol-4,5-bisphosphate (10 μM), ATP (30 μM), and the test compound were mixed in a 384-well plate (total 20 μL), and incubated at room temperature for 30 minutes. EDTA and biotinylated phosphatidylinositol-3,4,5-triphosphate were added thereto to stop the reaction. Thereafter, a Europium labeled anti-GST antibody, a GST bond GRP1 PH domain, and streptavidin-APC were added thereto, followed by incubation overnight. An HTRF ratio was measured using an HTRF plate reader. The IC50 value of the compound was calculated, taking the inhibition rate without addition of the enzyme as 100% and the inhibition rate without addition of the test compound as 0%, by means of a logistic method.
In the Table, Ex represents Example Compound No. as described later, PI3Kδ represents the IC50 value (nM) of a PI3Kδ enzyme inhibitory activity, and PI3Kα represents the IC50 value (nM) of a PI3Kα enzyme inhibitory activity.

Question: With `CN(C)CC(=O)N[C@H]1CC[C@H](Nc2nc(N3CCOCC3)nc(-n3c(C(F)F)nc4ccccc43)n2)CC1` [Example 40] as the molecule, how does the pIC50 read?
Answer: 8.44

pIC50: −log10 of the molar value.
